# Laboratory results taken from PubChem BioAssay AID1529 (NMMLSC, 2009).
# By UniProt entry, the sequences of proteins in these tests, tags left out. Where a name states a change or a piece, a line headed by the entry shows the natural chain unless it says otherwise.
# UniProt Q99759: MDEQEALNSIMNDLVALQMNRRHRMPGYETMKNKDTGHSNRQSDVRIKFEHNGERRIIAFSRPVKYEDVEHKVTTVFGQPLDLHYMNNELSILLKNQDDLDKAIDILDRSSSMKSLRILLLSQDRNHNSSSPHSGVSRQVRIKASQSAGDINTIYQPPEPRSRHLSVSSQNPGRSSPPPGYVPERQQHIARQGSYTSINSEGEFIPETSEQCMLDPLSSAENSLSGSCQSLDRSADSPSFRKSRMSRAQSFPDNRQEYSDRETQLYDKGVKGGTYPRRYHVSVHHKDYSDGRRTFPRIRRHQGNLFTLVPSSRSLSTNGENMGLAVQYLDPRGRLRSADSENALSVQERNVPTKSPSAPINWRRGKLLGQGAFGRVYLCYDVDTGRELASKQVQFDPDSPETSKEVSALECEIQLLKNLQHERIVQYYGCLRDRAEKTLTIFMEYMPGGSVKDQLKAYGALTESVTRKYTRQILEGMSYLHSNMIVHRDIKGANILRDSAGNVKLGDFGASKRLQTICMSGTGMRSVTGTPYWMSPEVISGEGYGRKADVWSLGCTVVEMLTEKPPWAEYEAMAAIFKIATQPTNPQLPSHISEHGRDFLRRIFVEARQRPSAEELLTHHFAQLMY
# Only a part is listed here, and it is no random draw. Activity calls are given as the source filed them.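 The calls were made as follows: active = binding response more than 3 SD above or below the average of its plate-row segment, actives on both sides; inconclusive = wells at one plate position flagged as instrument error; inactive = the rest.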
# Target: Mitogen-activated protein kinase kinase kinase 3 (Homo sapiens) (UniProt Q99759)
# Assay: modulators of MEKK3-MEK5 PB1 binding, primary screen, biochemical, wildtype MEKK3, multiplex bead flow cytometry, Alexa488-MEK5 (AID 1529);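 also: Alexa488 bead fluorescence after subtracting the streptavidin-only scavenger bead signal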
# Settings: bead-based flow cytometry, Alexa488-MEK5 binding to MEKK3; at 10 µM; actives lie on both sides; 0 = blocked by unlabeled MEK5, 100 = vehicle
row,SMILES,binding response (% of control)
1,Nc1cc(N)c2nonc2c1[N+](=O)[O-],inactive: 114%
2,CC(C)CC(=O)NC(Sc1ccc(Cl)cc1)C(Cl)(Cl)Cl (stereo not given),inactive: 90%
3,Oc1ccccc1CNc1ccccn1,inactive: 100%
4,O=C(NC(Sc1ccncn1)C(Cl)(Cl)Cl)c1ccccc1 (stereo not given),inactive: 100%
5,Cc1c2non([O-])c-2c(C)[n+](=O)[n+]1[O-],inactive: 97%
6,COc1ccccc1OP(=O)(Nc1ccc(C)cn1)Oc1ccccc1OC,inactive: 113%
7,Cc1ccc(OP(=O)(Nc2nccs2)Oc2ccc(C)cc2)cc1,inactive: 96%
8,CN1CCCC(OC(=O)C(c2ccccc2)c2ccccc2)C1 (stereo not given),inactive: 85%
9,Clc1ccc(Cl)c(NC2=NCC(CBr)S2)c1 (stereo not given),inactive: 105%
10,NC(=O)c1cc([N+](=O)[O-])cc([N+](=O)[O-])c1N,inactive: 91%
11,CCN(N=Nc1nonc1N)c1nonc1N,inactive: 95%
12,Nc1cccc2ccc([As](=O)(O)O)cc12,inactive: 96%
13,O=[N+]([O-])c1cc([N+](=O)[O-])c(CCN2CCOCC2)c([N+](=O)[O-])c1,inactive: 101%
14,Cc1cc(SC(NC(=O)c2ccc(F)cc2)C(Cl)(Cl)Cl)ncn1 (stereo not given),inactive: 97%
15,CCOP(=O)(Nc1ccccc1)OCC,inactive: 100%
16,Cc1ccc(NP(=O)(Oc2ccccc2F)Oc2ccccc2F)nc1,inactive: 109%
17,CN(C(=O)Cc1ccc(Cl)c(Cl)c1)[C@H]1CCCC[C@@H]1N1CCCC1,inactive: 107%
18,CC(=O)Nc1ccc([As](=O)(O)O)cc1,inactive: 98%
19,O=C(O)c1ccccc1[As](=O)(O)O,inactive: 102%
20,O=P(Nc1nc2ccc(Cl)cc2s1)(c1ccccc1)c1ccccc1,inactive: 95%
21,O=[N+]([O-])c1cccc(NC2=NCC(CBr)S2)c1 (stereo not given),inactive: 96%
22,O=C(O)CNc1ccc([As](=O)(O)O)cc1,inactive: 97%
23,CC(C)(C)C(=O)NC(Sc1ccncn1)C(Cl)(Cl)Cl (stereo not given),inactive: 92%
24,O=[N+]([O-])c1ncn(CCn2ncnc2[N+](=O)[O-])n1,inactive: 104%
25,O=C(Nc1cc([As](=O)(O)O)ccc1O)c1ccccc1,inactive: 88%
26,CC(C)=N/N=C(\N)N[N+](=O)[O-],inactive: 97%
27,CN(C)C(=O)OCCc1n(C)cc[n+]1C,inactive: 92%

row,SMILES,binding response (% of control)
1,CC1CCN(C(=O)Oc2c(Cl)cc(Cl)c3cccnc23)CC1,inactive: 93%
2,Nc1ccc([As](=O)(O)c2ccc(N)cc2)cc1,inactive: 104%
3,C[N+]1=C2C=CC=CC=C2SC12C([N+](=O)[O-])=CC([N+](=O)[O-])=C[C-]2[N+](=O)[O-] (stereo not given),inactive: 81%
4,CCN(/C(=N/P(=O)(N1CCOCC1)N1CCOCC1)N1CCOCC1)c1ccc(OC)cc1,inactive: 117%
5,O=[N+]([O-])c1cccc2n[nH]nc12,inactive: 102%
6,CC(=O)N1C2C3N(C(C)=O)C1C1N(C(C)=O)C(C(N1C(C)=O)N3C(C)=O)N2C(C)=O,inactive: 103%
7,Cc1ccc(NP(=O)(Oc2ccccc2)Oc2ccccc2)nc1,inactive: 65%
8,CCc1nc2c(n1)c1c(non1O)c1c2no[n+]1[O-],inactive: 101%
9,O=[N+]([O-])c1cc([N+](=O)[O-])c(CCNc2ccccc2)c([N+](=O)[O-])c1,inactive: 100%
10,COc1ccc(C2=NCC(CBr)S2)cc1 (stereo not given),inactive: 94%
11,c1nnnn1CCn1cnnn1,inactive: 107%
12,CC(C)C(=O)NC(Sc1ccccc1)C(Cl)(Cl)Cl (stereo not given),inactive: 88%
13,O=P(Nc1nccs1)(c1ccccc1)c1ccccc1,inactive: 106%
14,C(Cc1nn[nH]n1)Cc1nn[nH]n1,inactive: 99%
15,Nc1ccc([As](=O)(O)c2ccc([N+](=O)[O-])cc2)cc1,inactive: 99%
16,O=C(OC1CN2CCC1CC2)c1cccc(Cl)c1 (stereo not given),inactive: 106%
17,O=[N+]([O-])c1ccc(O)c(/C=N/Nc2ccc([N+](=O)[O-])cc2[N+](=O)[O-])c1,inactive: 104%
18,CC(=O)NC(SC(=S)N(C)C)C(Cl)(Cl)Cl (stereo not given),inactive: 94%
19,O=[N+]([O-])c1ncn(CCn2cnc([N+](=O)[O-])n2)n1,inactive: 100%
20,O=[As](O)(c1ccccc1)c1ccc(O)cc1,inactive: 102%
21,O=P(Nc1nc2ccccc2s1)(c1ccccc1)c1ccccc1,inactive: 103%
22,C[C@H]1OP(=O)(Oc2ccccc2)[C@H](O)[C@H](O)[C@H]1N=[N+]=[N-] (stereo not given in full),inactive: 98%
23,O=P(Nc1ccccn1)(c1ccc(Br)cc1)c1ccc(Br)cc1,inactive: 102%
24,CN(C)C1(CNC(=O)c2ccc(Cl)c(S(N)(=O)=O)c2)CCCCC1,inactive: 103%
25,Cc1ccccc1OP(=O)(Nc1ccccn1)Oc1ccccc1C,inactive: 88%
26,O=c1c2cc([N+](=O)[O-])ccc2[nH]c2c([N+](=O)[O-])cc([N+](=O)[O-])cc12,inactive: 96%
27,CN(C)C(=O)Oc1noc2ccccc12,inactive: 97%

row,SMILES,binding response (% of control)
1,COC(=O)c1cc2c(s1)N=C(c1ccccc1)N(C)P2(=O)N1CCOCC1 (stereo not given),inactive: 106%
2,CC(=O)NC(SC(=S)N(CC(C)C)CC(C)C)C(Cl)(Cl)Cl (stereo not given),inactive: 105%
3,Cc1ccc(OP(=O)(Nc2ccccn2)Oc2ccc(C)cc2)cc1,inactive: 80%
4,O=C(OC1CN2CCC1CC2)c1ccccc1 (stereo not given),inactive: 97%
5,CCC(=O)N1C2C3N(C(=O)CC)C1C1N(C(=O)CC)C(C(N1C(=O)CC)N3C(=O)CC)N2C(=O)CC,inactive: 104%
6,CCNC(=S)/N=C(\N)N[N+](=O)[O-],inactive: 105%
7,O=C(NC1CCS(=O)(=O)C1)NP(=S)(Oc1ccccc1)Oc1ccccc1 (stereo not given),inactive: 108%
8,c1ccc(-c2nn[nH]n2)c(-c2nn[nH]n2)c1,inactive: 89%
9,Cc1ccc(NP(=O)(Oc2cccc(C)c2)Oc2cccc(C)c2)nc1,inactive: 84%
10,CCOC(=O)NC(Sc1ccccc1)C(Cl)(Cl)Cl (stereo not given),inactive: 102%
11,CC(=O)Nc1ccc([As](=O)(O)O)c(O)c1,inactive: 91%
12,CC(=O)Nc1ccc(Oc2c([N+](=O)[O-])cc([N+](=O)[O-])cc2[N+](=O)[O-])cc1,inactive: 110%
13,CC(=O)c1ccc(N2CC2c2ccncc2)cc1 (stereo not given),inactive: 97%
14,C[C@H]1OP(=O)(Oc2ccccc2)C[C@@H]2O[C@@H]21 (stereo not given in full),inactive: 105%
15,C[C@@H]1C=CCP(=O)(Oc2ccccc2)O1 (stereo not given in full),inactive: 103%
16,CC(C)(C)C(=O)NC(Sc1ccccc1)C(Cl)(Cl)Cl (stereo not given),inactive: 88%
17,O=P1(Nc2nc3ccc(Cl)cc3s2)COc2ccccc2O1 (stereo not given),inactive: 102%
18,CCOc1ccc(C2=NCC(CBr)S2)cc1 (stereo not given),inactive: 94%
19,COc1cc(C2NCCC3(OCCO3)C2(C)C)cc(OC)c1OC (stereo not given),inactive: 102%
20,CCOP(=O)(Nc1cccc2ccccc12)OCC,inactive: 94%
21,CCCOP(=S)(Nc1nc(N)cc(=O)[nH]1)OCCC,inactive: 82%
22,Cc1ccc(NCCc2c([N+](=O)[O-])cc([N+](=O)[O-])cc2[N+](=O)[O-])cc1,inactive: 94%
23,Nc1cccc2c([As](=O)(O)O)cccc12,inactive: 91%
24,Cc1cccc(OCC(=O)OC2CN3CCC2CC3)c1 (stereo not given),inactive: 83%
25,O=[As](O)(c1cccc(O)c1)c1cccc(O)c1,inactive: 90%
26,O=[As](O)(O)c1cccnc1,inactive: 106%
27,COc1cc(C(=O)NCC2(N3CCOCC3)CCCCC2)cc(Cl)c1OC(C)C,inactive: 115%

row,SMILES,binding response (% of control)
1,CS(=O)(=O)c1ccc(Cl)c(NC(=O)COC(=O)C(O)(c2ccccc2)c2ccccc2)c1,inactive: 102%
2,O=C(OC1CN2CCC1CC2)c1ccc(Cl)cc1 (stereo not given),inactive: 104%
3,O=[N+]([O-])c1ccc2c(c1)nnn2O,inactive: 105%
4,CN(C(=O)Cc1ccc(Cl)c(Cl)c1)[C@H]1CC[C@@]2(CCCO2)C[C@@H]1N1CCCC1,inactive: 99%
5,CCOP1(=S)c2c(C)nn(CCC#N)c2N=C(c2ccc(F)cc2)N1C (stereo not given),inactive: 102%
6,CN(C(=O)Cc1ccccc1)[C@@H]1CC[C@]2(CCCO2)C[C@H]1N1CCCC1,inactive: 104%
7,NC(=O)Nc1ccc([As](=O)(O)O)cc1,inactive: 88%
8,Nc1ccccc1[As](=O)(O)c1ccccc1,inactive: 108%
9,O=C(O)COc1ccc([As](=O)(O)O)cc1[N+](=O)[O-],inactive: 97%
10,CS(=O)(=O)c1cc([N+](=O)[O-])c2no[n+]([O-])c2c1,inactive: 88%
11,CCOP1(=S)c2c(C)nn(CCC#N)c2N=C(c2ccccc2F)N1C (stereo not given),inactive: 108%
12,O=P(Nc1nccs1)(Oc1ccccc1)Oc1ccccc1,inactive: 106%
13,O=P(Nc1nccs1)(c1ccccc1)c1nc2ccccc2s1 (stereo not given),inactive: 99%
14,Cc1ccc(OCC(=O)OC2CN3CCC2CC3)cc1 (stereo not given),inactive: 96%
15,O=[As](O)(c1cccs1)c1cccs1,inactive: 102%
16,O=P1(Nc2ccc(Br)cn2)COc2ccccc2OC1,inactive: 101%
17,Nc1cccc([As](=O)(O)c2ccccc2)c1,inactive: 106%
18,O=P1(Nc2ncccn2)COc2ccccc2OC1,inactive: 93%
19,O=C(/C=C/c1ccccc1)OC1CN2CCC1CC2 (stereo not given),inactive: 105%
20,CN(C)C1(CNC(=O)c2ccc(S(C)(=O)=O)cc2)CCCCC1,inactive: 85%
21,CC1CCC(C(C)C)C(OP(=O)(Nc2ccccn2)c2ccccc2)C1 (stereo not given),inactive: 95%
22,Cc1ccc(C(=O)OC2CN3CCC2CC3)cc1 (stereo not given),inactive: 103%
23,O=[As](O)(c1ccccc1Br)c1ccccc1Br,inactive: 94%
24,CC1(CBr)Cn2c(nc3ccccc3c2=O)S1 (stereo not given),inactive: 109%
